# Screens as filed in PubChem BioAssay.
# DT40 TDP1 no CPT = qHTS for Inhibitors of human tyrosyl-DNA phosphodiesterase 1 (TDP1): qHTS in cells in absence of CPT | DT40 Tdp1-/- hTDP1 cells, no CPT, ATP luminescence, 48 h | 15% of 420,000 active | Potency, µM (series often up to 46.2 µM), for inactives: at the highest dose activity change, negative = growth inhibition, actives largely listed as inhibitors | AID 686978, 2013; also: potency is read from the fitted curve at half-maximal effect; % is scaled to controls: 0 for no effect and ±100 for the full control effect; nearly all actives have a fitted effect of over 55% in size
#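 DT40 Tdp1-/-;hTDP1 cells, no CPT (DMSO vehicle only), 400 cells/well; compounds pin-transferred; ≥48 hr, 37 °C; CellTiter-Glo 30 min RT dark, luminescence read.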
# uPA generation = inhibitors of cell surface uPA generation. 0.31% of 330,000 active. cell surface uPA generation assay, qHTS. Potency, µM (doses to about 38.3 µM), without a hit: at the top dose activity change, negative = inhibition, most hits filed as inhibitors. AID 540303; active = well fitted inhibition curve with a large enough effect; inconclusive = small, poorly fitted or top-dose-only effect; inactive = no such curve, though single readings can be large or run the other way; tested in mouse RAW 264.7 cells; also: potency is read from the fitted curve at half-maximal effect; % is scaled to controls: 0 for no effect and ±100 for the full control effect; nearly all actives have a fitted effect of over 55% in size
# TDP1 block = blocks human tyrosyl-DNA phosphodiesterase 1. 0.28% of 350,000 active. Q9NUW8. recombinant TDP1, AlphaScreen DNA substrate cleavage. Potency, µM (highest dose often 130 µM), for inactives: top-dose activity change, negative = inhibition, usual class: inhibitors; also: potency is read from the fitted curve at half-maximal effect; % is scaled to controls: 0 for no effect and ±100 for the full control effect; nearly all actives have a fitted effect of over 40% in size
#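 AlphaScreen read-out: signal falls as enzyme removes the 3' tyrosine-FITC from a 5'-biotinylated DNA oligo (15 nM, 5 min, RT). Enzyme was E. coli-made recombinant Tdp1 at 1 nM, exposed to compound for 15 min beforehand; beads 10 ug/ml, 10 min.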
# miR-21 FLuc = raises the signal of a miR-21 reporter; HeLa miR-21 FLuc reporter, luciferase, 48 h; Potency, µM (top dose mostly 38.3 µM), for inactives: at the highest dose reporter change, positive = more light; AID 2288; 340,000 tested, under 10 active; active = well fitted rising curve with a large enough effect; inconclusive = small, poorly fitted or top-dose-only effect; inactive = no such curve, though single readings can be large or run the other way;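 note: % of control where 0% means no effect; miR-21 action dims this reporter so a rising signal means less miR-21 action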
#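 HeLa cells endogenously expressing miR-21, stably carrying CMV-driven firefly luciferase with a downstream miR-21 binding site, 2000 cells/well. Titrations up to approximately 40 uM, 48 hours; luciferase luminescence read.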
# TDP1 cell CPT = growth inhibition of DT40 Tdp1-/-;hTDP1 cells with camptothecin (screen for TDP1 inhibitors) | AID 686979 | chicken DT40 Tdp1-/-;hTDP1 cells + 20 nM CPT, ATP luminescence, 48 h | 12% of 420,000 active | Potency, µM (titrated, usually from 46.2 µM), without a hit: at the highest dose activity change, negative = growth inhibition, most hits filed as inhibitors; also: potency is read from the fitted curve at half-maximal effect; % is scaled to controls: 0 for no effect and ±100 for the full control effect; nearly all actives have a fitted effect of over 55% in size
#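 Chicken DT40 Tdp1-/- cells complemented with human TDP1, 400 cells/well, exposed to compounds plus 20 nM camptothecin for at least 48 h at 37 C; viability read as ATP content by CellTiter-Glo luminescence.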
# Numbers without * were called inactive; ? = inconclusive; · = no result given; [ ] = remark or other dose. In the library only some 16% were active in any assay of this set; here they are far more common. Unless noted, calls follow the shape of the dose curve; as a rule, active = well fitted curve in the direction sought with a large enough effect; inconclusive = small, poorly fitted or top-dose-only effect, or another doubt; inactive = no such curve, though single readings can be large; an effect the other way counts as inactive or inconclusive.
no.	SMILES	DT40 TDP1 no CPT	uPA generation	TDP1 block	miR-21 FLuc	TDP1 cell CPT
1	COc1ccc(C(=O)/C=C/C(=O)N(Cc2ccc3c(c2)OCO3)C(C(=O)NC2CCCCC2)c2ccncc2)c(O)c1 (stereo not drawn)	23µM*	-9%	3%	1%	?
2	COc1ccc(-c2nnn(CC(=O)N(CC(=O)NC3CCCC3)Cc3cccs3)n2)cc1OC	-23%	·	0%	-4%	-15%
3	COCCN(CC(=O)NC1CCCCC1)C(=O)/C=C/C(=O)c1ccc(OC)cc1O	2.3µM*	-18%	6%	0%	2.1µM*
4	COc1ccc(C(=O)/C=C/C(=O)N(CC(=O)NC2CCCCC2)Cc2cccs2)c(O)c1	3.3µM*	?	1%	27%	1.6µM*
5	CC(C)(C)c1cc2ncnc(N3CCCCC3)c2s1	29µM*	-2%	·	-10%	13µM*
6	Cc1csc2c(N3CCCCC3)ncnc12	-17%	-27%	6%	-41%	-16%
7	Cc1cccc(NC(=O)CSc2nnc(C)c(=O)n2N)c1	-8%	5%	3%	4%	14%
8	O=C(CCN1CCOCC1)N/N=C/c1cc(Br)cc(Br)c1O	18µM*	-11%	2%	14%	6.5µM*
9	O=C(Cc1ccccc1)N/N=C/c1cc(Br)cc(Br)c1O	?	-9%	·	0%	?
10	Cc1ccc(OCC(=O)N/N=C\c2cn(C)c3ccccc23)c([N+](=O)[O-])c1	15µM*	-4%	7%	-6%	?
11	Cc1ccc(/C=N\NC(=O)COc2ccc(C)cc2[N+](=O)[O-])cc1	?	2%	6%	-13%	?
12	Cc1ccc(OCC(=O)N/N=C\c2c(C)[nH]n(-c3ccccc3)c2=O)c([N+](=O)[O-])c1	4.1µM*	-6%	9%	27%	3.7µM*
13	CC[C@@H](C)CN1C(=O)N[C@@H](CCc2ccccc2)C(C(C)=O)=C1C	-1%	-2%	5%[12.3 µM]	5%	10%
14	COc1ccccc1NC(=O)c1cccc(NC(=O)c2ccco2)c1	?	-4%	4%	-2%	-23%
15	CCOc1ccccc1NC(=O)c1ccc(C(=O)Nc2ccccc2OCC)cc1	-12%	·	-2%[12.3 µM]	-7%	-11%
16	COc1ccccc1C(=O)Nc1ccc(NC(=O)c2ccco2)cn1	21µM*	-2%	·	-54%	?
17	CCOc1ccccc1NC(=O)c1ccc(NC(=O)c2ccco2)cc1	16µM*	5%	2%	-11%	?
18	COc1ccccc1NC(=O)c1ccc(NC(=O)c2ccco2)cc1	16µM*	-3%	·	-12%	?
19	O=C(O)c1ccccc1-c1oc2cc(O)ccc2c(=O)c1Oc1ccccc1	-19%[9.04 µM]	·	-4%	·	-22%[9.04 µM]
20	CS(=O)(=O)c1nncn1-c1ccccc1	2%	-4%	0%	-3%	-4%
21	Cc1ccc(C(=O)NNC(=S)NCC2CCCO2)cc1[N+](=O)[O-] (stereo not drawn)	?	-9%	4%	-5%	?
22	COc1ccc(S(=O)(=O)NCc2cccnc2)cc1OC	-2%	3%	·	1%	12%
23	O=S(=O)(Nc1ccc(Cc2ccncc2)cc1)c1ccc(Cl)c(Cl)c1	?	·	4%	9%	?
24	COc1ccc(S(=O)(=O)Nc2ccc(Cc3ccncc3)cc2)cc1OC	15µM*	·	10%	18%	12µM*
25	CCc1ccc(OC)c(S(=O)(=O)Nc2ccc(Cc3ccncc3)cc2)c1	8.2µM*	-5%	12%	18%	7.3µM*

# Copied from the entries so far for reference:
no.	SMILES	DT40 TDP1 no CPT	uPA generation	TDP1 block	miR-21 FLuc	TDP1 cell CPT
23	O=S(=O)(Nc1ccc(Cc2ccncc2)cc1)c1ccc(Cl)c(Cl)c1	?	·	4%	9%	?
24	COc1ccc(S(=O)(=O)Nc2ccc(Cc3ccncc3)cc2)cc1OC	15µM*	·	10%	18%	12µM*
25	CCc1ccc(OC)c(S(=O)(=O)Nc2ccc(Cc3ccncc3)cc2)c1	8.2µM*	-5%	12%	18%	7.3µM*

# Continued:
no.	SMILES	DT40 TDP1 no CPT	uPA generation	TDP1 block	miR-21 FLuc	TDP1 cell CPT
26	COc1ccc(S(=O)(=O)NCc2ccncc2)cc1OC	14µM*	·	2%	6%	13µM*
27	COc1ccc2cc(S(=O)(=O)NCc3cccnc3)ccc2c1	8.2µM*	3%	·	0%	?
28	CC1(C(=O)NCCC#N)CCN1C(=O)CC(c1ccccc1)c1ccccc1 (stereo not drawn)	?	·	·	·	-24%
29	CCc1cccc(CC)c1NC(=O)Cc1csc(C)n1	-16%	·	-5%	2%	-16%
30	O=C(Cc1ccccc1)N/N=C/c1ccccc1Cl	-21%	·	7%	-26%	-21%
31	CCCCOc1ccc(-c2nnc(-c3cc[n+](C)cc3)o2)cc1	?	0%	-1%	7%	-17%
32	CC(C)c1ccccc1-n1c(SCC(=O)N2CCN(c3ccccc3)CC2)nnc1-c1cccnc1	23µM*	7%	-2%	10%	16µM*
33	Cn1c(SCC(=O)N2CCc3ccccc3C2)nnc1-c1ccncc1	-23%	-8%	3%	-2%	4%
34	CCc1cccc(CC)c1-n1c(SCC(=O)N2CCc3ccccc3C2)nnc1-c1cccnc1	23µM*	-4%	2%	1%	18µM*
35	CC(C)c1ccccc1-n1c(SCc2cc(=O)oc3ccc4ccccc4c23)nnc1-c1cccnc1	15µM*	-10%	3%	25%	?
36	CN(Cc1nc2c(s1)CCCC2)C(=O)CCc1nnc(-c2ccccc2)o1	-18%	-1%	·	-21%	0%
37	CCOc1ccc(S(=O)(=O)N(CC)CC)cc1NC(=O)CSCc1c(C)noc1C	?	-8%	-9%	·	?
38	C/C=C/COC(=O)c1[nH]c2c(c1C)C(=O)CC(c1ccco1)C2 (stereo not drawn)	0.21µM*	?	-11%	27%	0.29µM*
39	C=CCOC(=O)C1=C(C)OC(N)=C(C#N)C1c1ccco1 (stereo not drawn)	-1%	-2%	·	-1%	?
40	Cc1c(C(=O)OCC2CCCO2)[nH]c2c1C(=O)CC(c1ccco1)C2 (stereo not drawn)	3.7µM*	-19%	?	23%	3.7µM*
41	CCOC(=O)c1[nH]c2c(c1-c1ccccc1)C(=O)CC(c1ccccc1)C2 (stereo not drawn)	?	?	-3%	-27%	-26%
42	C=CCOC(=O)c1[nH]c2c(c1C)C(=O)CC(c1ccco1)C2 (stereo not drawn)	0.0065µM*	?	·	16%	0.021µM*
43	CN(C)c1ccc(CNC(=O)CN2C(=O)C3CCCCN3c3ccc(C(=O)N4CCCC4)cc32)cc1 (stereo not drawn)	?	·	-1%	3%	23µM*
44	Cc1cccc(CNC(=O)c2ccc3c(c2)N(C)C(=O)C2CCCCN32)c1 (stereo not drawn)	?	·	2%	14%	13µM*
45	Cc1ccc(CNC(=O)CN2C(=O)C3CCCCN3c3ccc(C(=O)N4CCCC4)cc32)cc1 (stereo not drawn)	-7%	·	4%	-3%	-7%
46	CCN1C(=O)C2CCCCN2c2ccc(C(=O)NCCOC)cc21 (stereo not drawn)	5%	2%	·	-1%	21%
47	CCOc1cc(CNC(=O)c2ccc3c(c2)NC(=O)C2CCCCN32)cc(OCC)c1OCC (stereo not drawn)	?	·	7%	9%	18µM*

# A different layout for two compounds above.
11. Cc1ccc(/C=N\NC(=O)COc2ccc(C)cc2[N+](=O)[O-])cc1
  DT40 TDP1 no CPT = ?	uPA generation = 2%	TDP1 block = 6%	miR-21 FLuc = -13%	TDP1 cell CPT = ?
14. COc1ccccc1NC(=O)c1cccc(NC(=O)c2ccco2)c1
  DT40 TDP1 no CPT = ?	uPA generation = -4%	TDP1 block = 4%	miR-21 FLuc = -2%	TDP1 cell CPT = -23%
